One series has as its system A375 cells (parental). As to the kind of experiment: Kinase inhibitor library screening, PrestoBlue cell viability, 1 or 10 μM, 72 h. The conditions noted are these: in %.
The subject of series [1] is 501Mel-GP cells (Dabrafenib-resistant). Described as above. The conditions noted are these: 10μΜ, in %.

`CS(=O)(=O)CCNCc1ccc(-c2ccc3ncnc(Nc4ccc(OCc5cccc(F)c5)c(Cl)c4)c3c2)o1.Cc1ccc(S(=O)(=O)O)cc1.Cc1ccc(S(=O)(=O)O)cc1` [Lapatinib Ditosylate (Tykerb)]: in the series with A375 cells (parental), the “cell viability, A375 Parental, 1μΜ” value was determined as 102.6.

Consider `CNC(=O)c1cc(Oc2ccc(NC(=O)Nc3ccc(Cl)c(C(F)(F)F)c3)cc2)ccn1` [Sorafenib (Nexavar)], for which the “cell viability (kinase inhibitor library screening)” value in series [1] was 27.3.

These data come from article PMC6364417, “Kinase inhibitor library screening identifies synergistic drug combinations effective in sensitive and resistant melanoma cells” (Journal of Experimental & Clinical Cancer Research : CR, 2019).
